Experimental data as given in paper PMC12903857.
Values belong to the compound of their own block, whether it stands above or below them. Non-standard residues stand in square brackets, D forms with d. Residues, ends and D or L forms follow the SMILES beside them. pS = N[C@@H](COP(=O)(O)O)C(=O)O

Tests used:
14-3-3σ = target: T1, 14-3-3σ (Homo sapiens, UniProt P31947); test: SPR, binary interaction of 12-mer RAF peptides
T1 sequence (P31947 1-248): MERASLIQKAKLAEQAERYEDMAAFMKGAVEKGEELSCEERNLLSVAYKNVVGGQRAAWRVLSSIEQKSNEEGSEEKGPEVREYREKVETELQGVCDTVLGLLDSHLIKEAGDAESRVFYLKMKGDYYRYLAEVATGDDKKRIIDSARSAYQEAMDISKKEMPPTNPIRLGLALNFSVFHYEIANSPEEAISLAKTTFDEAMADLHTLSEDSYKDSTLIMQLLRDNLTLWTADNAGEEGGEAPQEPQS

A-RAF pS214 = test: Protection of phosphorylation of A-RAF pS214 site, Western blot, HEK293T cells; type: cell-based
C-RAF pS259 [1] = test: Protection of phosphorylation, Western blot, HEK293T cells; type: cell-based; conditions: 10 μΜ compound, relative to total C-RAF
C-RAF pS259 [2] = test: Protection of phosphorylation, Western blot, MIA PaCa-2 cells; type: cell-based; conditions: endogenous C-RAF pS259 relative to total C-RAF

kon (14-3-3σ; read-out: ka, single replicates, binary, kinetic fit, Replicate 1 and 2): 132000 M⁻¹ s⁻¹
SMILES: CC[C@H](C)[C@H](NC(=O)[C@H](CCCNC(=N)N)NC(C)=O)C(=O)N[C@@H](CCCNC(=N)N)C(=O)N[C@@H](CO)C(=O)N[C@H](C(=O)N[C@@H](COP(=O)(O)O)C(=O)N[C@H](C(=O)N1CCC[C@H]1C(=O)N[C@@H](CC(N)=O)C(=O)N[C@H](C(=O)N[C@@H](Cc1c[nH]cn1)C(=O)N[C@@H](CCSC)C(N)=O)C(C)C)[C@@H](C)O)[C@@H](C)O [A-RAF (12-mer), RIRST{pS}TPNVHM] (Ac-RIRST[pS]TPNVHM-NH2; N-terminus and C-terminus assumed)

koff (14-3-3σ; read-out: kd / koff, Average ± SD, binary, kinetic fit, n = 2): 0.352 s⁻¹
SMILES: CSCC[C@H](NC(=O)[C@H](Cc1c[nH]cn1)NC(=O)[C@@H](NC(=O)[C@H](CC(N)=O)NC(=O)[C@@H]1CCCN1C(=O)[C@@H](NC(=O)[C@H](COP(=O)(O)O)NC(=O)[C@@H](NC(=O)[C@H](CO)NC(=O)[C@H](CCCNC(=N)N)NC(=O)[C@H](CCC(N)=O)NC(=O)[C@H](CCCNC(=N)N)NC(C)=O)[C@@H](C)O)[C@@H](C)O)C(C)C)C(N)=O [C-RAF (12-mer), RQRST{pS}TPNVHM] (Ac-RQRST[pS]TPNVHM-NH2; N-terminus and C-terminus assumed)

SMILES: O=C(CCl)NCC1CCN(S(=O)(=O)c2ccc(Br)cc2)CC1 [Compound 22]
A-RAF pS214 protection fold change (HEK293T) (A-RAF pS214): 1.2 fold | C-RAF pS259 protection fold change (HEK293T) (C-RAF pS259 [1]): 2.4 fold | C-RAF pS259 protection fold change (MIA PaCa-2) (C-RAF pS259 [2]): 1.4 fold
